# According to PubChem BioAssay AID720507 (National Center for Advancing Translational Sciences (NCATS), 2013):
# Sequences of proteins named here, by UniProt entry; tags and fusion partners are left off.
# UniProt P14416, whole entry, looked up: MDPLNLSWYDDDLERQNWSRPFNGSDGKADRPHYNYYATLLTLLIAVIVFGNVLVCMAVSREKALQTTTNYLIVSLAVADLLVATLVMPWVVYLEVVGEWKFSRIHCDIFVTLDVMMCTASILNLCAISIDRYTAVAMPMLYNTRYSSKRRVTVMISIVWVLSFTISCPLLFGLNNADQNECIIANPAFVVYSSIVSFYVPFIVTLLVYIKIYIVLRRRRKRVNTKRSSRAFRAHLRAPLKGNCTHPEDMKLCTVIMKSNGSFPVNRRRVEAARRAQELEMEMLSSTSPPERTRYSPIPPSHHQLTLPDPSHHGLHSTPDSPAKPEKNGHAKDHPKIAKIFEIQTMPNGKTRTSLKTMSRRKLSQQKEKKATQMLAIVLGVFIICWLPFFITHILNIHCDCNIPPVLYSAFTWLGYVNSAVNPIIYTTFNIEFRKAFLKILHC
# This is a selection; strong and weak results do not stand in their true shares. Results filed as inconclusive are left out. Calls of active or inactive are those of the source. The call rests on the fitted dose curve; in most records, active means well fitted activation curve with a large enough effect; inconclusive means small, poorly fitted or top-dose-only effect; inactive means flat fitted curve, though single readings scatter.
# Biological target: D(2) dopamine receptor (Homo sapiens) (UniProt P14416)
# Experiment: qHTS of D3 Dopamine Receptor Agonist: D2 Dopamine Receptor B-arrestin Agonist Counterscreen; further: nearly all actives have a fitted effect of over 70% in size
# Details: DiscoveRx PathHunter D2 beta-arrestin, luminescence, 90 min
# Source text: D3 DARs represent a very important target for the treatment of several neuropsychiatric disorders. Indeed, one of the most promising therapeutic applications for the D3 DAR is in the area of addiction and related disorders. […] These findings have been observed with a number of addictive substances including cocaine, amphetamine, nicotine, and alcohol. […] Increased D3 DAR activity can thus lead to neuroprotective and neurorestorative actions in the CNS. […] This assay is used to profile the activity of the identified D3 dopamine receptor agonist against the D2 dopamine receptor. Greater than 10% of the maximum dopamine agonist response is desired for this assay. NIH Molecular Libraries Probe Production Centers Network [MLPCN] NIH Chemical Genomics Center [NCGC] MLPCN Grant: NS064831 Assay Submitter (PI): David Sibley
# DiscoveRx D2 cells were thawed from frozen stock and seeded at 2,100 cells/ 3 uL/well media (DiscoveRx Plating Reagent 2) with MultiDrop Combi dispenser (Thermo Scientific, Logan, UT) onto white tissue culture treated 1536-well Aurora plates (Brooks Automation, Chelmsford, MA) and allowed to attach overnight at 37 deg C, 5% CO2. […] The plates were incubated at ambient temperature for 1 hour and then the luminescent signal was read on ViewLux plate reader (PerkinElmer, Waltham, MA).
# Potency means the concentration at half of the fitted maximal effect.
row,Compound,Potency
1,CCCN1CCC[C@H](c2cccc(O)c2)C1,active: 2820 nM
